Target: Progesterone Receptor (PR) (Homo sapiens, UniProt P06401)
Assay: In vitro functional assay for progesterone receptor (PR) antagonists: inhibition of progesterone-induced alkaline phosphatase expression in T47D cells
Details: read-out: PR Ki, antagonist format, 5 nM progesterone, Ki calculated from IC50 with the Cheng-Prusoff equation
Description: 1.0 In vitro Functional Assay for Progesterone Receptor (PR) Antagonists, Agonists and Modulators
The assay for PR antagonism takes advantage of the extensively reported modulation of alkaline phosphatase (AP) expression in human breast T47D mammary carcinoma cells {Beck et al., D. P. (1993). The progesterone antagonist RU486 acquires agonist activity upon stimulation of cAMP signalling pathways. Proc Natl Acad Sci USA 90, 4441-4445; Fensome et al. (2002). New progesterone receptor antagonists: 3,3-disubstituted-5-aryloxindoles. Bioorg Med Chem Lett 12, 3487-3490; Zhang et al., (2002a). 6-Aryl-1,4-dihydro-benzo d1,3oxazin-2-ones: a novel class of potent, selective, and orally active nonsteroidal progesterone receptor antagonists. Journal of Medicinal Chemistry 45, 4379-4382; Zhang et al., (2003). Novel 6-aryl-1,4-dihydrobenzo d oxazine-2-thiones as potent, selective, and orally active nonsteroidal progesterone receptor agonists. Bioorganic & Medicinal Chemistry Letters 13, 1313-1316; Zhang et al., (2002b). Potent nonsteroidal progesterone receptor agonists: synthesis and SAR study of 6-aryl benzoxazines. Bioorganic & Medicinal Chemistry Letters 12, 787-790; Zhang, Z. et al., (2000). In vitro characterization of trimegestone: a new potent and selective progestin. Steroids 65, 637-643}. […] In the absence of progesterone any agonist activity is also observed as an induction of AP activity. […]

Chains of the proteins cited; added tags and fusions are not shown.
UniProt P06401, whole entry: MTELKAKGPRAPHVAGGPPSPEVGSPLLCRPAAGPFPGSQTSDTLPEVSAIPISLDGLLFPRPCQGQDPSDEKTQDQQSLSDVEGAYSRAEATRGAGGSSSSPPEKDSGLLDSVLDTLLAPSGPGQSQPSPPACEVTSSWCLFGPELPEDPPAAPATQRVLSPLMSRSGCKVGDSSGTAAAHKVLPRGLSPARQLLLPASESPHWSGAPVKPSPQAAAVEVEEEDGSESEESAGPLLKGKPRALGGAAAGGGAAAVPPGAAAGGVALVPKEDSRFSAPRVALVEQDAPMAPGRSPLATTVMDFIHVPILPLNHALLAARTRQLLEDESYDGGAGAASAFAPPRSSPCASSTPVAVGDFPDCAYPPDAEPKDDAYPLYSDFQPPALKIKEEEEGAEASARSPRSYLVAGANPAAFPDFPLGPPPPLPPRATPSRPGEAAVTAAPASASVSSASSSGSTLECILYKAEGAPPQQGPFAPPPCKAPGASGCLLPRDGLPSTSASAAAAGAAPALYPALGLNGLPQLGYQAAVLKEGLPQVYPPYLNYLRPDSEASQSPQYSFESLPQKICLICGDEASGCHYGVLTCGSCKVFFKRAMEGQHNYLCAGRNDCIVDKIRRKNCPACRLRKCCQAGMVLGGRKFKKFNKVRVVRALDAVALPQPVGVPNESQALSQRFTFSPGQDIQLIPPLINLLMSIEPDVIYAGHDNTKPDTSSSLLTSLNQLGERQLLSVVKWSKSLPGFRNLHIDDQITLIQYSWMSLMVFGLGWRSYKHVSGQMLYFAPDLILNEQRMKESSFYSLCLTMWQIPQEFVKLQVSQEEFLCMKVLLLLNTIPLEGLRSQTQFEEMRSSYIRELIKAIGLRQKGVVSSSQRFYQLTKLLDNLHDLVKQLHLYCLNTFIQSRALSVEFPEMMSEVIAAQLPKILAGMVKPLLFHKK

Compound | Ki [nM]
CC(C)n1nc(-c2ccc(C#N)cc2)c(C2CC2)c1C(=O)N[C@H]1Cc2nccn2C1 | 13.4
CC(C)n1nc(-c2ccc(C#N)cc2)c(C2CC2)c1C(=O)N[C@@H]1Cc2nccn2C1 | > 57.2
